Measured values published in patent publication US20060079453A1, “Hla binding peptides and their uses” (priority 2002, published 2006).

Experiments:
Assay in all cases: biochemical
Format in all cases: binding
[1] = molecular target: HLA-A*0202 (Homo sapiens, UniProt P04439, D140Y/D185E/D98H/E176V/E277Q/G131W/G231S/I119L/I121R/I166T/I218V/L180W/L300P/L318F/N151K/N90K/P208A/P217A/Q67R/Q86G/Q94H/R138H/R169H/T345S)
[2] = molecular target: HLA-A*0206 (Homo sapiens, UniProt P04439, D140Y/D185E/D98H/E176V/E277Q/F33Y/G131W/G231S/I119V/I121R/I166T/I218V/L300P/L318F/N151K/N90K/P208A/P217A/Q86G/Q94H/R138H/R169H/T345S)
[3] = molecular target: HLA-A*6802 (Homo sapiens, UniProt P04439, A269V/D140Y/D185E/E176V/E277Q/E87N/F33Y/G231S/I121R/I166T/I218V/L180W/L300P/L318F/N151K/P208A/P217A/Q86R/R138H/R169H/S129P/T345S/V36M)
[4] = molecular target: HLA-B*4501 (Homo sapiens, UniProt P01889, A329T/A65T/A93T/A95T/C349S/D138N/D201E/D98Y/E176V/E187L/E204Q/E69K/H137Y/K202T/L119W/N87E/Q56L/Q94N/R155S/R180D/S121R/S35A/S48T/V127L/V306I/V36M/W191S/Y140L/Y33H/Y91S)
[5] = molecular target: HLA-B*4403 (Homo sapiens, UniProt P01889, A223V/A65T/A93T/A95T/D201E/D98Y/E176V/E187L/E204Q/E69K/G107R/H137Y/K202T/L105A/L119I/N104T/N87E/Q56L/Q94N/R106L/R155S/R180L/S101N/S121R/S35A/S48T/T118I/V36M/W191S/Y140D/Y91S)
[6] = molecular target: HLA-B*4402 (Homo sapiens, UniProt P01889, A223V/A65T/A93T/A95T/D201E/D98Y/E176V/E187L/E204Q/E69K/G107R/H137Y/K202T/L105A/L119I/N104T/N87E/Q56L/Q94N/R106L/R155S/R180D/S101N/S121R/S35A/S48T/T118I/V36M/W191S/Y140D/Y91S)
[7] = molecular target: HLA-B*4002 (Homo sapiens, UniProt P01889, A65T/A93T/A95T/D138N/D201E/D98Y/E176V/E204Q/E69K/K202T/N87E/Q56L/Q94N/R180L/S48T/Y33H/Y91S)
[8] = molecular target: HLA-B*1801 (Homo sapiens, UniProt P01889, A329T/A93T/A95T/C349S/D201E/D54G/D98Y/E176V/E187T/E204Q/E69T/K202T/Q94N/R155S/R180L/S121R/V306I/Y140S/Y195H/Y33H/Y91S)
[9] = molecular target: HLA-B*4001 (Homo sapiens, UniProt P01889, A65T/A93T/A95T/D138N/D98Y/E176V/E69K/N87E/Q56L/Q94N/R180L/S121R/S35A/S48T/T167S/V36M/W171L/Y33H/Y91S)

| Compound | IC50 [1] [µM] | IC50 [2] [µM] | IC50 [3] [µM] | IC50 [4] [µM] | IC50 [5] [µM] | IC50 [6] [µM] | IC50 [7] [µM] | IC50 [8] [µM] | IC50 [9] [µM] |
| --- | --- | --- | --- | --- | --- | --- | --- | --- | --- |
| CC(C)C[C@H](NC(=O)[C@H](C)N)C(=O)N[C@@H](CCC(=O)O)C(=O)N[C@@H](CCC(=O)O)C(=O)N[C@@H](CCC(=O)O)C(=O)N[C@@H](CCC(=O)O)C(=O)N[C@H](C(=O)NCC(=O)N[C@@H](Cc1ccccc1)C(=O)N1CCC[C@H]1C(=O)N[C@H](C(=O)O)C(C)C)C(C)C | 0.487 | 2.99 | > 13.8 | – | – | – | – | – | – |
| CC(C)[C@H](NC(=O)[C@@H]1CCCN1C(=O)[C@H](Cc1ccccc1)NC(=O)CNC(=O)[C@@H](NC(=O)[C@H](CCC(=O)O)NC(=O)[C@H](CCC(=O)O)NC(=O)[C@@H](N)CC(=O)O)C(C)C)C(=O)O | – | – | – | 0.916 | > 10.5 | 9.31 | 4.26 | 0.0071 | > 32 |
| CC(C)[C@H](NC(=O)[C@@H]1CCCN1C(=O)[C@H](Cc1ccccc1)NC(=O)CNC(=O)[C@@H](NC(=O)[C@H](CCC(=O)O)NC(=O)[C@H](CCC(=O)O)NC(=O)[C@H](CCC(=O)O)NC(=O)[C@@H](N)CCC(=O)O)C(C)C)C(=O)O | – | – | – | 0.037 | – | 7.44 | – | 3.69 | 3.34 |
| CC(C)[C@H](NC(=O)[C@@H]1CCCN1C(=O)[C@H](Cc1ccccc1)NC(=O)CNC(=O)[C@@H](NC(=O)[C@H](CCC(=O)O)NC(=O)[C@H](CCC(=O)O)NC(=O)[C@@H](N)CCC(=O)O)C(C)C)C(=O)O | – | – | – | – | > 10.5 | 6.37 | 2.61 | – | 9.58 |
| CC(C)[C@H](NC(=O)[C@H](CCC(N)=O)NC(=O)[C@@H]1CCCN1C(=O)[C@H](CCCNC(=N)N)NC(=O)[C@@H](NC(=O)[C@@H]1CCCN1C(=O)[C@H](Cc1ccccc1)NC(=O)CNC(=O)[C@@H](NC(=O)[C@H](CCC(=O)O)NC(=O)[C@@H](N)CCC(=O)O)C(C)C)C(C)C)C(=O)O | – | – | – | 0.808 | 6.55 | 23.8 | 0.108 | > 22.8 | 9.9 |
| CC(C)[C@H](NC(=O)[C@@H]1CCCN1C(=O)[C@H](Cc1ccccc1)NC(=O)CNC(=O)[C@@H](NC(=O)[C@H](CCC(=O)O)NC(=O)[C@H](CCC(=O)O)NC(=O)[C@H](CCC(=O)O)NC(=O)[C@H](CCC(=O)O)NC(=O)[C@@H](N)CCC(N)=O)C(C)C)C(=O)O | – | – | – | 0.086 | > 11.4 | 15.2 | 2.6 | > 8.61 | 13.1 |
